Laboratory results from ChEMBL document CHEMBL1138606, “The discovery of tropane derivatives as nociceptin receptor ligands for the management of cough and anxiety” (Bioorg Med Chem Lett, 2009).

By UniProt entry, the sequences of proteins in these tests, tags left out.
UniProt P35372, whole entry: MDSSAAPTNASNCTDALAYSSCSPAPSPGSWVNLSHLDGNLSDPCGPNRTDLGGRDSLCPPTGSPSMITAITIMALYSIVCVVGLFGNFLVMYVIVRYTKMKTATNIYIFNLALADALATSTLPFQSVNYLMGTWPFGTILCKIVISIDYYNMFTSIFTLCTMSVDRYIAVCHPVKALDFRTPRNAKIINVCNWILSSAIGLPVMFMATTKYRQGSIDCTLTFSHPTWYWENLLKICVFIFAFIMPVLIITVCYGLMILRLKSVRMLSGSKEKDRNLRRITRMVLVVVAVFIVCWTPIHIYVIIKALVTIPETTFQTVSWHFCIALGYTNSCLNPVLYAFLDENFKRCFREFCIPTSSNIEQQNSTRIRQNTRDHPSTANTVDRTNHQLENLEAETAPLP

Molecular target: Mu-type opioid receptor (Homo sapiens, UniProt P35372)
Assay: Agonist activity at human mu opioid assessed as stimulation of GDP-induced [35S]GTPgammaS binding
Type: functional
Procedure, shortened: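 Functional agonism measured as enhancement of [35S]GTPγS binding in the presence of GDP, using membranes from cells transfected with the receptor. Values are means of 2–3 experiments.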

SMILES: NC(=O)C1(c2ccccc2)CC2CCC(C1)N2C(c1ccccc1Cl)c1ccccc1Cl (stereo unspecified)
- EC50: 376 nM
